For orientation: IC50 means the concentration needed to halve the response being measured.

By UniProt entry, the sequences of proteins in these tests, tags left out.
UniProt Q13191, whole entry: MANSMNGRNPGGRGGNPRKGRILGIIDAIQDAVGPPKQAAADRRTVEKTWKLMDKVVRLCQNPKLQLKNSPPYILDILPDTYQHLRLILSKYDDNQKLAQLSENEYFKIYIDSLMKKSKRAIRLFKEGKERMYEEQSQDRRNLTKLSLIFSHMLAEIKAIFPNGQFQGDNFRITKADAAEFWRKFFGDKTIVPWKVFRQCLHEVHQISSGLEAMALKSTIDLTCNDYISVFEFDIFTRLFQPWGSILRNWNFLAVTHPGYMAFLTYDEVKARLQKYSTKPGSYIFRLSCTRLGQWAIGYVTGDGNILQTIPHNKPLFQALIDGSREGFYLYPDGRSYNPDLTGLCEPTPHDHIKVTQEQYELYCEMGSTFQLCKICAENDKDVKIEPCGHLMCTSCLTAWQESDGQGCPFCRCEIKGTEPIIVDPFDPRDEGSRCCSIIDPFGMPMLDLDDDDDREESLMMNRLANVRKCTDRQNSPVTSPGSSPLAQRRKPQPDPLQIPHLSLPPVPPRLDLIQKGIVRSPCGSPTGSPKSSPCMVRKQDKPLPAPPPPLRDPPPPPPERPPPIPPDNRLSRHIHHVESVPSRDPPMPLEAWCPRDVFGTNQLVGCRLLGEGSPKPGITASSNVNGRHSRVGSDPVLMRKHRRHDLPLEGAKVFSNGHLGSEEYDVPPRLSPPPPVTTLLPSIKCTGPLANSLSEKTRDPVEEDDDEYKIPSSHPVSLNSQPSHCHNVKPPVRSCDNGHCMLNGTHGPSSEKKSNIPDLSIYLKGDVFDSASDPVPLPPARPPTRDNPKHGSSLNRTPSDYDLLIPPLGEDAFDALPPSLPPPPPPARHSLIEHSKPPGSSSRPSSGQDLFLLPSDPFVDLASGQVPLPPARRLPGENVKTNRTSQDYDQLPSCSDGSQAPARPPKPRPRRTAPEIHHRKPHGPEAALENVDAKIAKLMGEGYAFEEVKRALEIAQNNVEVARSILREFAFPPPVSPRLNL

The experiment deals with CBL-B (Homo sapiens, UniProt Q13191). In words: CBL-B TR-FRET IC50 screening (E1/E2 ubiquitination, Biotin-Ubiquitin, Anti GST-Tb donor / Streptavidin-d2 acceptor). The conditions noted are these: read-out: CBL-B TR-FRET activity IC50; CBL-B 10 nM final; 11-point titration from 100 uM; binned A-F. As for the experimental part: Example 625. IC50 Screening
• a) Thaw UBE1, UBCH5b, CBL-B, Biotin-Ubiquitin, CBL-B assay buffer, and ATP on ice. Aliquot each protein, CBL-B assay buffer, and ATP into single-use aliquots and stored at −80° C. immediately. • b) Transfer 100 mL test compound (10 mM stock solution, start at 100 uM, 1:3 dilution, 11 points) and then backfill 100 mL DMSO to each well designated for the “Test compound” by Echo. • c) Transfer 200 mL DMSO to each well designated for the “High Control”, “Low Control” by Echo. • d) Carefully calculate the amount of proteins needed. Prepare appropriate amounts of diluted proteins; dilute only the amount required for the assay. […] Keep the diluted reagents on ice until use. • e) Add 2.5 μl diluted CBL-B (40 nM) for the “High Control” and “Test compound”, the final concentration is 10 nM. For the “Low Control”, add 2.5 μL buffer each well. Pre-incubate for 15 min. • f) Centrifuge at 1000 rpm for 1 minute and shake plate at a speed of 600 rpm for 5 minutes. • g) Prepare the Master Mixture (E1E2) using diluted reagents: N wells×(1 μl Biotin-Ub+0.5 μl diluted UBE1+1 μl diluted UBCH5+5 μl ATP). Pre-incubation for 10 min. • h) Add master mixture to each well. Centrifuge at 1000 rpm for 1 minute and shake plate at a speed of 600 rpm for 5 minutes. • i) Incubate the reaction at 30° C. for 20 minutes. Cover the plate with a plate sealer. • j) Dilute Mab Anti GST-Tb cryptate donor (1:100) and Streptavidin-d2 acceptor (1:100) using PPI-Terbium detection buffer. Prepare only the amount required for the assay Add 5 μL diluted donor and 5 μL acceptor mixture into each well. Centrifuge at 1000 rpm for 1 minute and shake plate at a speed of 600 rpm for 5 minutes. Incubate at room temperature for one hour. • k) Read the fluorescent intensity with EnVison2104 (PerkinElmer Life Sciences). Blank value is subtracted from all other values. Tb-donor emission should be measured at 615 nM followed by dye-acceptor emission at 665 nm. […]
A general note: Time-resolved FRET reads energy transfer from a long-lived donor to a nearby acceptor.
Consider `Cc1c[nH]nc1CC1(c2cccc(-n3cc4c(C(F)(F)F)cc(Br)cn4c3=O)c2)COC1`, for which the IC50 lay within 0.301 to 1 µM.

Regarding `Cc1c[nH]nc1C1(c2cccc(-n3cc4c(C(F)(F)F)cc(CN5CCC[C@H](C)C5)cn4c3=O)c2)CC2(CC2)C1`, the IC50 lay in the range of 0.1 to 0.3 µM. For `Cc1c[nH]nc1[C@H](c1cccc(-n2cc3c(C(F)(F)F)cc(CN4CCC[C@H](C)C4)cn3c2=O)c1)C1CCC1`, the IC50 was 1 to 3 µM.

The values above are taken from patent US20240228482A1, “COMPOUNDS, COMPOSITIONS AND METHODS OF TREATING CANCER” (HOTSPOT THERAPEUTICS, INC., priority 2021, published 2024).
